Results as given in ChEMBL document CHEMBL2384903, “Highly efficient biocompatible neuroprotectants with dual activity as antioxidants and P2Y receptor agonists” (J Med Chem, 2013).

Protein sequences, listed by entry. Tags and fused reporters are not part of them. Lines headed by an entry give the natural chain unless they say otherwise; changes in a name come on top.
UniProt P47900: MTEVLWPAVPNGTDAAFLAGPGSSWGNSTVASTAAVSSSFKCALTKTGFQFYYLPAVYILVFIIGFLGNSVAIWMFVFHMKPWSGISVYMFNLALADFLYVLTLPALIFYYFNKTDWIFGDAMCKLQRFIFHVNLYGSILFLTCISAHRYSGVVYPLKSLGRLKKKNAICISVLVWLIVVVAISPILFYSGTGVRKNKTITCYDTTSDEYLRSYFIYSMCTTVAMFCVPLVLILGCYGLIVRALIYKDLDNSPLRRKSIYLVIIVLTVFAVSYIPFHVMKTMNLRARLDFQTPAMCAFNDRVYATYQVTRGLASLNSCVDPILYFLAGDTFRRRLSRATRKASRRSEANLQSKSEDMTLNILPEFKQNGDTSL

Biological target: P2Y purinoceptor 1 (Homo sapiens, UniProt P47900)
Test: Agonist activity at human GFP-tagged P2Y1R transfected in human 1321N1 cells assessed as induction of intracellular calcium mobilization by fluorescence assay
Assay type: functional, cell-based

CSc1nc(N)c2ncn([C@@H]3O[C@H](COP(=O)(O)OP(=O)(O)O)[C@@H](O)[C@H]3O)c2n1
EC50: 13 nM
